According to PubChem BioAssay AID1021 (Emory University Molecular Libraries Screening Center, 2008):
Only a part is listed here, and it is no random draw. Calls of active or inactive are those of the source.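 Rule for the calls: active = compounds that cut the binding signal by more than half at the single screening dose; inactive = the rest.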

Amino acid sequences for entries named in this document (tags omitted).
UniProt Q07820, whole entry: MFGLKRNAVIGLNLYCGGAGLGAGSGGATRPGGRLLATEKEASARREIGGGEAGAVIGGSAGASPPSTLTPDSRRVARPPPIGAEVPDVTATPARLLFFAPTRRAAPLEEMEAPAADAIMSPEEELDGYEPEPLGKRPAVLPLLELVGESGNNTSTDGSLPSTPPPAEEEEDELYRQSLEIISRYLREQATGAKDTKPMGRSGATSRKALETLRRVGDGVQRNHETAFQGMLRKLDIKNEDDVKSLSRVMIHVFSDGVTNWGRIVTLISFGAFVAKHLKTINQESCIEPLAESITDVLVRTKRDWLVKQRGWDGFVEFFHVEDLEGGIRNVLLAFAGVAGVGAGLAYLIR

The molecules below were run against Induced myeloid leukemia cell differentiation protein Mcl-1 (Homo sapiens) (UniProt Q07820) (assay: Mcl-1/Bid binding inhibitors, primary screen, biochemical, TR-FRET, 1536-well (AID 1021;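 note: His-tagged Mcl-1 with europium anti-His antibody binding Bid BH3 peptide; 0% = Mcl-1 plus peptide wells and 100% = peptide-only wells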)). Conditions: TR-FRET Mcl-1/Bid-Dy647 peptide binding, at 21.7 µM, hits give high values.

Compound	inhibition
CCc1ccc(OP(C)(=O)O)cc1	inactive: -0.38%
COc1ccccc1OP(C)(=O)Nc1ccc(C)cc1C (stereo not drawn)	inactive: -9.34%
CP(=O)(Nc1ccccn1)Oc1ccccc1 (stereo not drawn)	inactive: -18.1%
COc1ccccc1OP(C)(=O)Nc1ccc(Br)cc1 (stereo not drawn)	inactive: 6.68%
CN(C)CCOC(=O)C(O)(c1ccccc1)C1CCCC1 (stereo not drawn)	inactive: -15.9%
COc1ccc(OP(C)(=O)Nc2ccccn2)cc1 (stereo not drawn)	inactive: -2.47%
Cc1nc2ccc3ccccc3c2o1.O=[N+]([O-])c1cc([N+](=O)[O-])c(O)c([N+](=O)[O-])c1	inactive: -37.7%
CP(=O)(OCCOc1ccccc1)OCCOc1ccccc1	inactive: -16.3%
CP(=O)(Nc1ccc(Cl)cc1Cl)Oc1ccccc1 (stereo not drawn)	inactive: -14.4%
Cc1cc(C)cc(OP(C)(=O)Nc2cccc(C(F)(F)F)c2)c1 (stereo not drawn)	inactive: -14%
COc1ccc(OP(C)(=O)Nc2ccccc2Br)cc1 (stereo not drawn)	inactive: 5.08%
COc1ccccc1OP(C)(=O)Nc1ccc(C)c(C)c1 (stereo not drawn)	inactive: -33.5%
CP(=O)(OC12CC3CC(CC(C3)C1)C2)OC12CC3CC(CC(C3)C1)C2	inactive: -11.6%
CCOC(=O)c1ccc(NP(C)(=O)Oc2ccc(Cl)cc2)cc1 (stereo not drawn)	inactive: 4.47%
CP(=O)(Nc1ccc(Cl)cc1)Oc1ccc(F)cc1 (stereo not drawn)	inactive: -8.18%
CC(C)(C)c1ccc(OP(C)(=O)O)cc1	inactive: -19.2%
COc1ccccc1OP(C)(=O)Nc1ccccc1Br (stereo not drawn)	inactive: -7.97%
CN(C)C(=O)c1c([N+](=O)[O-])cc([N+](=O)[O-])cc1[N+](=O)[O-]	inactive: -15.3%
COc1ccc(OP(C)(=O)Nc2ccc(Br)cc2)cc1 (stereo not drawn)	inactive: -9.99%
CCN(CC)CC(O)COC(=O)C(O)(c1ccccc1)C1CCCCC1 (stereo not drawn)	inactive: 0.87%
CCc1ccc(OP(C)(=O)Nc2cccnc2)cc1 (stereo not drawn)	inactive: -20.6%
CP(=O)(Oc1ccccc1)N1CCOC1=O (stereo not drawn)	inactive: -21.1%
O=C(OCCCN1CCCC1)C(O)(c1ccccc1)C1CCCCC1 (stereo not drawn)	inactive: 6.43%
